This note sets out measurements from PubChem BioAssay AID504466 (National Center for Advancing Translational Sciences (NCATS), 2011).

Only a part is listed here, and it is no random draw. Records with an inconclusive call do not appear. The source made the active and inactive calls. Calls follow the shape of the dose curve; as a rule, active = well fitted activation curve with a large enough effect; inconclusive = small, poorly fitted or top-dose-only effect; inactive = no such curve, though single readings can be large or run the other way.

The nature of the test: qHTS screen for small molecules that induce genotoxicity in human embryonic kidney (HEK293T) cells expressing luciferase-tagged ELG1. Also: % of control where 0% means no effect; nearly all actives have a fitted effect of over 60% in size. The following applies: HEK293T ELG1-luciferase reporter, luminescence, 16 h; at 46 µM (top of the series). An excerpt: NIH Molecular Libraries Probe Production Network [MLPCN] NIH Chemical Genomics Center [NCGC] MLPCN Grant: 1 R03 MH092164-01 Assay Provider: Kyungjae Myung, NHGRI, NIH Keywords: MLPCN, qHTS, NCGC, genotoxicity, cancer Assay Overview: Cancer cells divide rapidly compared to normal cells in the body. During cell division, cancer cells need to duplicate their genome by DNA replication. The failure of genome duplication leads to cancer cells' death. Therefore, inhibitors of DNA replication could specifically kill cancer cells. Based on this concept, many chemotherapeutic agents were developed and have been used to treat cancer patients. However, there are a limited number of agents available in the clinical setting, and some of those that do exist have low efficacy and severe side effects. Therefore, if we can find the compounds that effectively block DNA replication either by directly damaging DNA or by inhibiting other cellular mechanisms, the options for cancer treatment will be broadened. With this in mind, we developed a quantitative high-throughput ELG1-luciferase reporter gene assay. Since the level of human ELG1 protein is enhanced in response to genetic stresses, increases in luciferase activity can be used to identify compounds that cause genetic stress.
Assay Protocol Summary: For genotoxicity screening, 2,000 cells in 5 uL/well were dispensed into white, solid-bottom 1536-well plates using a solenoid-based dispenser. Following transfer of 23 nL compound or DMSO vehicle by a pin tool, the plates were incubated 16 hr at 37 °C and 5% CO2. 5 ul ONE-Glo (Promega) was then added to each plate and following a 30 min incubation at room temperature, luciferase activity was quantified on a ViewLux CCD-based plate reader.
Consider `O=[N+]([O-])c1cc([N+](=O)[O-])c(-n2nnc3ccccc32)c([N+](=O)[O-])c1`, for which the activity change, positive = activation is inactive: -0.52%.
In the case of `Cc1nc2ccc3ccccc3c2s1.O=[N+]([O-])c1cc([N+](=O)[O-])c(O)c([N+](=O)[O-])c1`, the activity change, positive = activation was inactive: 1.23%.
Then `CC1=C2N=C(C=C3N=C(C(C)=C4[N-][C@@](C)([C@@H]5N=C1[C@](C)(CCC(=O)NC[C@@H](C)OP(=O)([O-])O[C@H]1[C@@H](O)[C@@H](n6cnc7cc(C)c(C)cc76)O[C@@H]1CO)[C@H]5CC(N)=O)[C@@](C)(CC(N)=O)[C@@H]4CCC(N)=O)[C@@](C)(CC(N)=O)[C@@H]3CCC(N)=O)C(C)(C)[C@@H]2CCC(N)=O.[C-]#N.[Co+3]`, with inactive: -46.6%; and `O=[N+]([O-])c1cc([N+](=O)[O-])c(Nc2nnnn2CCO)c([N+](=O)[O-])c1`, with inactive: -4.93%.
Then `COc1ccccc1OP(C)(=O)Nc1c(C)cccc1C` (stereo not drawn), with inactive: 0.913%; and `CN1CCCCC1COC(=O)C1(O)c2ccccc2CCc2ccccc21` (stereo not drawn), with inactive: -1.54%.
Then `CCCOc1ccc(NP(C)(=O)Oc2ccc(Cl)cc2)cc1` (stereo not drawn), with inactive: -0.42%.
As for `CP(=O)(Nc1ccc(SC(F)(F)F)cc1)Oc1ccccc1` (stereo not drawn), the activity change, positive = activation is inactive: 1.02%.
Then `CC1=NCCc2c1[nH]c1ccccc21.O=[N+]([O-])c1cc([N+](=O)[O-])c(O)c([N+](=O)[O-])c1`, with inactive: -1.81%; and `COc1ccccc1OP(C)(=O)Nc1cccc(Br)c1` (stereo not drawn), with inactive: -0.86%; and `Cc1cc(C)cc(OP(C)(=O)Nc2ccc(C)cc2C)c1` (stereo not drawn), with inactive: -1.08%.
Then `CCOC(=O)c1ccc(NP(C)(=O)Oc2cc(C)cc(C)c2)cc1` (stereo not drawn), with inactive: -2.09%; and `Cc1cc(C)cc(OP(C)(=O)Nc2ccccn2)c1` (stereo not drawn), with inactive: 1.5%.
Then `CP(=O)(Nc1cccc(Br)c1)Oc1ccccc1` (stereo not drawn), with inactive: -9.91%; and `Cc1ccc(C)c(NP(C)(=O)Oc2ccccc2)c1` (stereo not drawn), with inactive: 2.18%; and `CCN(CC)CCCOC(=O)C(O)(c1ccccc1)c1ccccc1`, with inactive: 3.37%.
Turning to `O=[N+]([O-])c1cc([N+](=O)[O-])c(Nc2cccnc2)c([N+](=O)[O-])c1`, the activity change, positive = activation is inactive: -6.96%.
Then `Cc1cccc(C)c1OP(C)(N)=O` (stereo not drawn), with inactive: -9.78%; and `CC(C)(C)c1ccc(OP(C)(=O)Nc2ccc(SC(F)(F)F)cc2)cc1` (stereo not drawn), with inactive: -1.43%; and `CCOC(=O)c1ccc(NP(C)(=O)Oc2ccccc2)cc1` (stereo not drawn), with inactive: 0.972%.
`Cc1ccc(NP(C)(=O)Oc2ccccc2)c(C)c1` (stereo not drawn): the activity change, positive = activation was inactive: -3.94%.
`COc1ccccc1OP(C)(=O)Nc1ccc(C)cc1` (stereo not drawn): the activity change, positive = activation was inactive: -0.872%.
For the compound `COc1ccc(OP(C)(=O)Nc2cccc(F)c2)cc1` (stereo not drawn), the activity change, positive = activation was inactive: -4.68%.
Then `COc1ccccc1OP(C)(=O)Nc1cc(Cl)ccc1C` (stereo not drawn), with inactive: -1.69%; and `Cc1cc(C)cc(OP(C)(N)=O)c1` (stereo not drawn), with inactive: -11.4%.
Then `CP(=S)(Nn1cnnc1)Oc1ccccc1` (stereo not drawn), with inactive: -2.99%; and `COc1ccccc1OP(C)(=O)Nc1ccccc1` (stereo not drawn), with inactive: -9.24%.
Then `CP(=O)(Nc1ccccc1Br)Oc1ccccc1` (stereo not drawn), with inactive: 1.08%; and `CP(=O)(Oc1ccccc1)OC(c1ccccc1)C(F)(F)F` (stereo not drawn), with inactive: -4.87%.
Take `Cc1cccc(C)c1OP(C)(=O)Nc1ccc(SC(F)(F)F)cc1` (stereo not drawn): the activity change, positive = activation was inactive: -0.0744%.
Then `CP(=O)(Nc1ccc(SC(F)(F)F)cc1)Oc1ccc(Cl)cc1` (stereo not drawn), with inactive: -3.37%; and `Cc1cc(C)cc(OP(C)(=O)Nc2ccc(SC(F)(F)F)cc2)c1` (stereo not drawn), with inactive: -5.84%; and `CP(=O)(NC(=O)Nc1ccccc1)Oc1ccccc1` (stereo not drawn), with inactive: 2.47%.
Then `CCc1ccc(OP(C)(=O)N2CCN(c3ccc([N+](=O)[O-])cc3)CC2)cc1` (stereo not drawn), with inactive: -7.71%; and `CCOP(C)(=S)SCC(=O)NC(C)C(=O)O` (stereo not drawn), with inactive: 4.46%.
Take `CCOC(=O)c1ccc(NP(C)(=O)Oc2ccc(OC)cc2)cc1` (stereo not drawn): the activity change, positive = activation is inactive: 1%.
`COc1ccc(OP(C)(=O)Nc2ccc(Br)cc2)cc1` (stereo not drawn): the activity change, positive = activation is inactive: -0.191%.
Then `CCN(CC)CC(O)COC(=O)C(O)(c1ccccc1)C1CCCCC1` (stereo not drawn), with inactive: 1.98%; and `CCc1ccc(OP(C)(=O)Nc2cccnc2)cc1` (stereo not drawn), with inactive: 0.107%; and `CP(=O)(Oc1ccccc1)N1CCOC1=O` (stereo not drawn), with inactive: -1.46%.
Then `O=C(OCCCN1CCCC1)C(O)(c1ccccc1)C1CCCCC1` (stereo not drawn), with inactive: -1.39%; and `COc1ccccc1OP(C)(=O)Nc1c(C)n(C)n(-c2ccccc2)c1=O` (stereo not drawn), with inactive: 0.723%; and `CP(=O)(Nc1ccc(Cl)cc1)Oc1ccc(F)cc1` (stereo not drawn), with inactive: -0.271%.
Then `COc1ccccc1OP(C)(=O)Nc1ccccc1Br` (stereo not drawn), with inactive: 1.31%; and `CC(C)(C)c1ccc(OP(C)(=O)O)cc1`, with inactive: -6.13%.
On to `CN(C)C(=O)c1c([N+](=O)[O-])cc([N+](=O)[O-])cc1[N+](=O)[O-]`, for which the activity change, positive = activation was inactive: -12.8%.
Then `CP(=O)(OC12CC3CC(CC(C3)C1)C2)OC12CC3CC(CC(C3)C1)C2`, with inactive: -3.76%.
Then `CCOC(=O)c1ccc(NP(C)(=O)Oc2ccc(Cl)cc2)cc1` (stereo not drawn), with inactive: -0.61%; and `Cc1cc(C)cc(OP(C)(=O)Nc2cccc(C(F)(F)F)c2)c1` (stereo not drawn), with inactive: 0.83%.
Then `COc1ccc(OP(C)(=O)Nc2ccccc2Br)cc1` (stereo not drawn), with inactive: -1.72%.
As for `COc1ccccc1OP(C)(=O)Nc1ccc(C)c(C)c1` (stereo not drawn), the activity change, positive = activation was inactive: 0.584%.
Turning to `CP(=O)(Nc1ccc(Cl)cc1Cl)Oc1ccccc1` (stereo not drawn), the activity change, positive = activation is inactive: -0.831%.
Then `CP(=O)(OCCOc1ccccc1)OCCOc1ccccc1`, with inactive: -4.44%; and `COc1ccccc1OP(C)(=O)Nc1ccc(Br)cc1` (stereo not drawn), with inactive: -0.439%.
Then `CN(C)CCOC(=O)C(O)(c1ccccc1)C1CCCC1` (stereo not drawn), with inactive: 0.523%; and `COc1ccc(OP(C)(=O)Nc2ccccn2)cc1` (stereo not drawn), with inactive: -3.26%.
Then `Cc1c(NP(C)(=O)Oc2ccc(C(C)C)cc2)c(=O)n(-c2ccccc2)n1C` (stereo not drawn), with inactive: -1.4%; and `O=[N+]([O-])c1cc([N+](=O)[O-])c(Nc2ccccn2)c([N+](=O)[O-])c1`, with inactive: -15.1%; and `CCc1ccc(OP(C)(=O)O)cc1`, with inactive: 0.671%.
For the compound `COc1ccccc1OP(C)(=O)Nc1ccc(C)cc1C` (stereo not drawn), the activity change, positive = activation is inactive: 0.275%.
Then `CP(=O)(Nc1ccccn1)Oc1ccccc1` (stereo not drawn), with inactive: -1.64%.
Then `CC(C)c1ccc(OP(C)(=O)Nc2ccc(SC(F)(F)F)cc2)cc1` (stereo not drawn), with inactive: 0.727%.
Then `CP(=O)(Nc1ccccc1F)Oc1ccccc1` (stereo not drawn), with inactive: 1.02%.
On to `O=C(OCCN1CCN(CCOCc2ccccc2)CC1)C(O)(c1ccccc1)c1ccccc1`, for which the activity change, positive = activation is inactive: -1.23%.
Then `COc1ccc(OP(C)(=O)Nc2ccc(SC(F)(F)F)cc2)cc1` (stereo not drawn), with inactive: -5.25%.
Then `CCOC(=O)c1ccc(NP(C)(=O)Oc2ccc(F)cc2)cc1` (stereo not drawn), with inactive: 5.11%; and `CCN(CC)CCCOC(=O)C(O)(c1ccccc1)C1CCCCC1` (stereo not drawn), with inactive: 0.563%; and `CCCCCOc1ccc(NP(C)(=O)Oc2ccc(Cl)cc2Cl)cc1` (stereo not drawn), with inactive: -2.23%.
For `CP(=O)(Nc1ccccc1)Oc1ccc(F)cc1` (stereo not drawn), the activity change, positive = activation was inactive: -0.668%.
Then `COc1ccc(OP(C)(=O)Nc2cccc(Br)c2)cc1` (stereo not drawn), with inactive: -0.0377%; and `COc1ccc(NP(C)(=O)Oc2ccccc2OC)cc1` (stereo not drawn), with inactive: 0.26%; and `CN(C)CCOC(=O)C(O)(c1ccccc1)C1CCCCC1` (stereo not drawn), with inactive: -0.854%.
Then `Cc1cc(-c2cccc3ccccc23)c(C)cn1.O=[N+]([O-])c1cc([N+](=O)[O-])c(O)c([N+](=O)[O-])c1`, with inactive: 2.53%; and `O=[N+]([O-])c1ccc(OP2(=O)COCCO2)cc1` (stereo not drawn), with inactive: -0.511%.
On to `CP(=O)(Nc1ccc(SC(F)(F)F)cc1)Oc1ccc(F)cc1` (stereo not drawn), for which the activity change, positive = activation is inactive: -7.05%.
Then `CCOP(C)(=S)SCC(=O)NC(C)(CC)C(=O)O` (stereo not drawn), with inactive: 0.16%.
For the compound `CP(=O)(Nc1ccc2c(c1)OCCO2)Oc1ccccc1` (stereo not drawn), the activity change, positive = activation is inactive: 6.59%.
Then `Cc1ccccc1NP(C)(=O)Nc1ccccc1C`, with inactive: 4.88%.
